Measurements published in PMC9339560 (Journal of Food and Drug Analysis, 2016).

The chains behind the UniProt entries cited, without tags or fusion partners.
UniProt P81908, whole entry: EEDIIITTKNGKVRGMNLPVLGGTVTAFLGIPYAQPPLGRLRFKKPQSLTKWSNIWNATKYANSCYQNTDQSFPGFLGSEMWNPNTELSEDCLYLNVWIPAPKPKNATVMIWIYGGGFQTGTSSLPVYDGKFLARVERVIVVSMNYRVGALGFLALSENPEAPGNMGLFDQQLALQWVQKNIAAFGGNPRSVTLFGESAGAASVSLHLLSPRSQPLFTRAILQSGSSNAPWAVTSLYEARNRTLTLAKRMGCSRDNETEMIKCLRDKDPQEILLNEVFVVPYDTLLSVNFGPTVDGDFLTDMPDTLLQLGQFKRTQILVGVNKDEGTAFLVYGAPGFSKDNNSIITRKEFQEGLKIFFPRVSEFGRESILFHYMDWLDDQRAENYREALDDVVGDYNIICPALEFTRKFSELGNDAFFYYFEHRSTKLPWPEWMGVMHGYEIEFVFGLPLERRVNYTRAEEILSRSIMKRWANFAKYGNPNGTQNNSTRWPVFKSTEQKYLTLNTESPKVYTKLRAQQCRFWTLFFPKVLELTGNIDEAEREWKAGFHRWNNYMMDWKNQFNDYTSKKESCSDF

Target: butyrylcholinesterase from equine serum (Equus caballus, UniProt P81908)
Experiment: Butyrylcholinesterase
Type: biochemical
Details: IC50 BChE, mean ± SD (n = 3); Table 4

CNC(=O)Oc1ccc2c(c1)[C@]1(C)CCN(C)[C@@H]1N2C [Physostigmine, physostigmine]
IC50: 581 nM
